Literature values in PMC12198292, “Advancing in vitro assessment of iodide uptake inhibition: integrating a novel biotransformation pretreatment step” (Archives of Toxicology, 2025).

Set-up: method as in PubChem https://pubchem.ncbi.nlm.nih.gov/
Conditions: ref PubChem https://pubchem.ncbi.nlm.nih.gov/; cited from earlier work

**Q.** Which “log Kow” value does the source give for NC(=O)N1c2ccccc2C=Cc2ccccc21 [CBZ, Carbamazepine, reference compound] here?
**A.** Its value is 2.45.
